Assay results reported in patent publication US9610320B2, “Surgical applications for BMP binding protein” (THE REGENTS OF THE UNIVERSITY OF CALIFORNIA, priority 2004, dated 2017).

Assays:
male Swiss-Weber mice = test: Mouse hindquarter (muscle pouch) ectopic bone formation assay, BBP; assay type: in vivo
Description: (§1) Methods: The osteogenic activity of material was tested using male Swiss-Weber mice aged 8 to 10 weeks were used (Taconic Farms, Germantown, N.Y.). Prior to the assay, the BBP was solublized and lyophilized into 2 mg of atelocollagen. The dried material was placed in a #5 gelatin capsule and sterilized by exposure to chloroform vapor. To conduct the assay, mice were anesthetized using 1% isoflurane delivered in oxygen at 2 l/min through a small animal anesthesia machine (VetEquip, Pleasanton, Calif.). Animals were affixed to a surgery board and the fur over the hindquarters shaved. The skin was cleaned with 70% ethanol and a midline incision made over the spine adjacent to the hindquarters. Blunt dissection with scissors was used to expose the quadriceps muscle on one side. A small pouch was made in the muscle using the point of scissors and the #5 capsule containing the test material was inserted into the pouch. The skin was then closed with three 11 mm Michel surgical clips and the animal returned to its cage for monitoring.
After 21 days the animals were killed and the hindquarter removed. Radiological examination of the specimens was accomplished using a small parts X-Ray cabinet (Faxitron, Wheeling, Ill.). For quantization of bone formation, bone area and the bone mineral content (BMC) of an area of interest encompassing the site of ectopic bone formation was determined using a PIXImus2 small animal densitometer (GE Lunar, Madison, Wis.). Specimens were then placed in buffered formalin and submitted for routine processing for histological examination.
Various amounts of rhBMP-2 and BBP were combined and prepared for implantation. All possible combinations of the following amounts were used in pilot studies, rhBMP-2: 0 μg, 0.05 μg, 0.5 μg, 5 μg, and 50 μg; BBP: 0 μg, 50 μg, and μg 500 mg. Samples of 5 μg of rhBMP-2 were used in more extensive subsequent studies because that amount consistently produced an amount of ectopic bone that was neither too large nor too small for reliable analysis.

[1] = as described in the background; cited from earlier work
mice = test: Mouse hindquarter ectopic bone formation assay, human BBP; assay type: in vivo; conditions: rhBMP-2 5 μg alone, 4 weeks, DEXA
Description: as §1
After 21 days the animals were killed and the hindquarter removed. […] For quantization of bone formation, bone area and the bone mineral content (BMC) of an area of interest encompassing the site of ectopic bone formation was determined using a PIXImus2 small animal densitometer (GE Lunar, Madison, Wis.). […]

Lewis rats [2] = test: Rat posterolateral intertransverse process spinal fusion L4-L5 (Example 6); assay type: in vivo; conditions: for Fusion Rates: Group 3: collagen plus low-dose rhBMP-2 1 μg, week 8
Description: Methods: Three groups of 6 Lewis rats each underwent posterolateral intertransverse process spinal fusion at vertebrae L4-L5 with the application of collagen sponges containing: BBP (500 μg)(Group 1): BBP (500 μg) plus low-dose rhBMP-2 (1 μg) (Group 2); collagen plus low-dose rhBMP-2 (1 μg) (Group 3), Results were compared to historical controls of decortication only (0% fusion) and high-dose rhBMP-2 (3 μg) (100% fusion). All rats underwent post-operative radiography at 2, 4, 6, and 8 weeks. Manual spinal palpation was performed at 8 weeks, the time of sacrifice. Bone formation was assessed in histological sections stained with H&E.

Lewis rats [3] = test: Rat posterolateral intertransverse process spinal fusion L4-L5 (Example 8); assay type: in vivo
Description: Methods: Posterolateral intertransverse process spinal fusion at L4-L5 was performed in five treatment groups of Lewis rats each, and collagen sponges (5×5×13 mm) were implanted into the surgical sites.
Each sponge was placed in a sterile microfuge tube and either a suspension of BBP (500 μg or 1000 μg) in water or sterile water alone was applied. The sponges were allowed to air dry in a tissue culture hood overnight and then placed at −70° C. for an hour and lyophilized overnight. The tubes (with small holes in the top to allow for lyophilization) were placed in autoclave pouches and sealed. The materials were then sterilized by exposure to chloroform vapor for at least 4 hours. Immediately prior to surgery, the pouches were opened and the sponges were removed from the tubes and placed in a second tube containing the designed amount of rhBMP-2 or water. The sponges were able to completely absorb the solution.
The posterolateral intertransverse process spinal fusion at L4-L5 in the rat is a well established procedure in our laboratory 13-17. Briefly, the animal was anesthetized with isofluane and the surgical site was shaved and propped with Betadyne and alcohol. A 3 cm longitudinal midline incision was made through the skin and subcutaneous tissue over L4-L5 down to the lumbodorsal fascia. Then, two separate 2 cm longitudinal paramedial incisions were made in the erector spinae muscles on both sides of L4-L5. The transverse processes of L4-L5 were exposed, cleaned of soft tissue, and decorticated with a high-speed burr. The site was irrigated with saline and the therapeutic test material was placed. The lumbodorsal fascia was closed with 4-0 Prolene (Ethicon, Somerville, N.J.). The skin was closed with 4-0 Prolene and meticulous post-operative care was provided.
Two doses of BBP (500 μg, and 1000 μg) were tested with or without “low dose” (1 μg) rhBMP-2 and the results were compared to the low dose (1 μg) rhBMP-2. These were compared to control groups. Fusion was evaluated by radiology, histology and manual palpation tests. Animals were sacrificed 8 weeks after surgery.
The results of the surgeries were assessed radiologically, histologically, and by manual palpation. Posteroanterior radiographs were obtained using a small parts X-ray cabinet (Faxitron Corp., Wheeling, Ill.) on each animal at 2, 4, 6 and 8 weeks. Radiograms were evaluated by three independent observers employing the following standardized scale: 0: no fusion; 1: incomplete fusion with bone formation present; and 2: complete fusion. The scores from the three observes were added and a total of 5 or 6 was regarded as “fused”. Manual palpation of the spine was performed at the time of sacrifice at 8 weeks. To simulate the gold standard for determining fusion in humans, exploration and manual palpation of the fusion mass were performed after death. The level fused was manually palpated with Adson forceps and compared with the adjacent nonfused levels. Each specimen was graded as fused or non-fused by three independent observers. The spine was designated as “not fused” if any of the three observers graded the spine as not fused. After manual palpation, the specimens were decalcified using standard 10% decalcifying solution HCl (Cal-Ex, Fisher Scientific, Fairlawn, N.J.), washed with running tap water, then transferred to 75% ethanol. Sagittal sections were cut carefully at the level of the transverse process. The specimens were imbedded in paraffin and sections of each specimen obtained. These sections were stained with hematoxylin and eosin. They were evaluated by an independent observer as fused and not fused.
The proportions of subjects in each group judged to be “fused” were compared in sequential two group comparisons with Fisher's exact test using SPSS software. A p score of less than or equal to 0.05 was set for statistical significance.

Lewis rats [4] = test: Rat posterolateral intertransverse process spinal fusion L4-L5 (Example 7); assay type: in vivo
Description: Methods: Five groups of 50 Lewis rats each underwent posterolateral intertransverse process spinal fusion at vertebrae L4-L5 with implanted: BBP (500 μg) (Group 1); BBP (1000 μg) (Group 2), collagen plus low dose BMP-2 (1 μg) (Group 3), BBP (500 μg) plus low dose BMP (1 μg) (Group 4) and BBP (1000 μg) plus low dose BMP (1 μg) (Group 5). Control groups included a negative group (decortication) and positive control group (collagen plus 3 μg BMP).
All rats underwent post-operative radiography at 2, 4, 6, and 8 weeks. Manual spinal palpation was performed at 8 weeks, after the time of sacrifice. Bone formation was assessed in histological sections stained with H&E.

[5] = 5 μg rhBMP-2, BBP 0 μg, 21 days, densitometry
[6] = low dose BMP-2 only (1 μg rhBMP-2)
[7] = low dose BMP-2 only (1 μg rhBMP-2), 8th week

rhBMP-2: recombinant human BMP-2, bone morphogenetic protein
Bone Area (male Swiss-Weber mice; [5]): 0.089 ± 0.0336 cm^2
Bone Mineral Content (male Swiss-Weber mice; [5]): 0.00189 ± 0.00084 g
histology day 9 (FIG. 8A) (male Swiss-Weber mice; 5 μg rhBMP-2 alone, 9 days): earlier stages of inflammation and mesodermal cell proliferation
half-life [1]: only a few hours
Mean BMC content (mice): 0.00775 g
Fusion Rates (Lewis rats [2]): 20%
Fusion Rates (Lewis rats [2]; listed as BMP): 40%
fusion (Lewis rats [2]; historical control, high-dose rhBMP-2 3 μg): 100%
radiological examination, fused, Week 8th (Lewis rats [3]; control group, high dose BMP-2 only (10 μg rhBMP-2)): 100%
Manual Palpation, fused (Lewis rats [3]; control group, high dose BMP-2 only, 8th week): 100%
radiological examination, fused, Week 2nd (Lewis rats [3]; [6]): 0%
radiological examination, fused, Week 4th (Lewis rats [3]; [6]): 20%
radiological examination, fused, Week 6th (Lewis rats [3]; [6]): 30%
radiological examination, fused, Week 8th (Lewis rats [3]; [6]): 40%
Histology, fused (Lewis rats [3]; [7]): 40%
Manual Palpation, fused (Lewis rats [3]; [7]): 40%
histological section finding (FIG. 18) (Lewis rats [3]; low dose rhBMP-2 (1 μg), 8 weeks): immature bone bridging the cortical matured bridging bony parts
anterior-posterior radiograph finding at L4-L5 (FIG. 16) (Lewis rats [3]; rhBMP-2 (1 μg)): pseudoarthritis at right anno fusion at left
fusion by manual palpation (Lewis rats [4]; Group 3: collagen plus low dose BMP-2 1 μg, week 8): 40%
fusion rate (Lewis rats [4]; historical positive control, full dose BMP (collagen plus 3 μg BMP)): 100%
